Test results published in patent publication US8057659B2, “Detection of analytes in a dual-mediator electrochemical test strip” (AgaMatrix, Inc., priority 2006, dated 2011).

Details: PF6 salt of the complex

Substance: [Os(MeBpy)2(Im)2]^2+/3+
- solubility: less than 1 mM
